SMILES strings stand for the structures. pEC50, pIC50: −log10 of the molar value. Like-named read-outs stand apart in the source and are kept apart here.

By UniProt entry, the sequences of proteins in these tests, tags left out. Residues count along the entry.
UniProt Q9NZQ7, 19-238 limits assumed: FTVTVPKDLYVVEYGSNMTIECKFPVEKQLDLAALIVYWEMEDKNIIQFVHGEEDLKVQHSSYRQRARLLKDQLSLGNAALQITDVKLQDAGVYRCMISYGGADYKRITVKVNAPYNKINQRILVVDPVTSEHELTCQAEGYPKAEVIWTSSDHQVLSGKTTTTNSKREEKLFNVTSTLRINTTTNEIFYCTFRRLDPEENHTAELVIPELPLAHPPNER
UniProt Q9NZQ7, 19-290 limits assumed: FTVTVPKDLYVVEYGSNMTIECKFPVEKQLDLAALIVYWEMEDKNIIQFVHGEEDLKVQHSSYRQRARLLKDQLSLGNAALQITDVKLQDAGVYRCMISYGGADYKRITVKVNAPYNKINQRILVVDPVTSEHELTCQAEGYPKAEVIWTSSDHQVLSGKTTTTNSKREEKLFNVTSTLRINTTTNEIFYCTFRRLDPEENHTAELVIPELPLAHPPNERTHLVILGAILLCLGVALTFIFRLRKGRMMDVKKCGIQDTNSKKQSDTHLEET

The record followed here is patent US20250340529A1, “Heterocyclic Compounds as Immunomodulators of PD-L1 Interactions” (Ascletis BioScience Co., Ltd, priority 2021, published 2025).

Assay [1] has as its target extracellular domains of PD-L1 (Homo sapiens (Human), UniProt Q9NZQ7). The assay can be described thus: PD-L1 dimerization (biochemical protein-protein interaction assay). The settings on record: read-out: Dimerization EC50 (nm); PDL1-Eu and PDL1-A2, 25° C., 120 min. As to the method: Compounds were tested in biochemical protein-protein interaction assays to determine if they can specifically dimerize the extracellular domains of PD-L1. • (1) Dilute cpd 1:3 in succession in DMSO for each column for 10±0 pts (refer to dilution plate map) • (2) Transfer 0.2 μL cpds solution in each row to 384 assay plate using Echo, each column containing 2 replicates (refer to assay plate map). • (3) Add 20 μL prepared mixture include PDL1-Eu and PDL1-A2 solution to assay plate, centrifuge at 1000 rpm for 1 min. • (4) Incubate at 25° C. for 120 min. • (5) Read fluorescence signal on Envision 2104 plate reader. • (6) Read the Ratio (665 nm/615 nm) signal on Envision. • (7) Analyze the raw data using the equation (V. Data analysis)

A further assay deals with PD-1/PD-L1 (Homo sapiens (Human), UniProt Q9NZQ7). In words: PD-1/PD-L1 Homogeneous Time-Resolved Fluorescence (HTRF) binding assay. Particulars: read-out: HTRF IC50 (nm), 3 nM PD1, 10 nM PD-L1, 25° C., PBS pH 7.4. The protocol:
PD-1/PD-L1 Homogeneous Time-Resolved Fluorescence (HTRF) Binding Assay
The assays were conducted in a standard black 384-well polystyrene plate with a final volume of 20 μL. Inhibitors were first serially diluted in DMSO and then added to the plate wells before the addition of other reaction components. The final concentration of DMSO in the assay was 1%. The assays were carried out at 25° C. in the PBS buffer (pH 7.4) with 0.05% Tween-20 and 0.1% BSA. Recombinant human PD-L1 protein (19-238) with a Histag at the C-terminus was purchased from AcroBiosystems (PD1-H5229). Recombinant human PD-1 protein (25-167) with Fe tag at the C-terminus was also purchased from AcroBiosystems (PD1-H5257). PD-L1 and PD-1 proteins were diluted in the assay buffer and 10 μL was added to the plate well. Plates were centrifuged and proteins were preincubated with inhibitors for 40 minutes. The incubation was followed by the addition of 10 μL of HTRF detection buffer supplemented with Europium cryptate-labeled anti-human IgG (PerkinElmer-AD0212) specific for Fe and anti-His antibody conjugated to SureLight®-Allophycocyanin (APC, PerkinElmer-AD0059H). After centrifugation, the plate was incubated at 25° C. for 60 min. before reading on a PHERAstar FS plate reader (665 nm/620 nm ratio). Final concentrations in the assay were—3 nM PD1, 10 nM PD-L1, 1 nM europium anti-human IgG and 20 nM anti-His-Allophycocyanin. IC50 determination was performed by fitting the curve of percent control activity versus the log of the inhibitor concentration.
For orientation: TR-FRET usually uses a lanthanide donor and a delayed reading to cut background.

The next assay has as its target PD-L1/CHO-K1 cells (Homo sapiens (Human), UniProt Q9NZQ7). In words: PD-L1 internalization (FACS, PD-L1/CHO-K1 cells). Particulars: % activation of PD-L1 internalization = 1 − PD-L1 signal; 17 hours incubation. The protocol: Day 1. Seeding cells: Digest the PD-L1/CHO-K1 cells by trypsin in the flask, then counting the cell number and diluted to 1×10^5 cells/ml. Seeding cells to 6 well plate (Corning, #3516), 2 mL/well. The plates were incubated at 37° C., […] incubator for 24 hours.
Day 2. Preparing compounds and treated cells: Dilute GLC01-258 from 15 mM to 0.5 mM by using DMSO, and 15 mM compound were serial diluted from 15 mM˜15 nM by DMSO, Then 500 times dilute the compounds by using assay buffer. Prepare 0.2% DMSO in assay buffer used for Vehicle control and low control. Take out the plates, aspirated the medium and thrown away. Adding 2 mL of the diluted compounds, vehicle control and low control to corresponding wells. Then incubated the plates for 17 hours at 37° C., 5% CO2 incubator.
Day 3. Preparing samples for FACS: After 17 hours incubation, discarded medium and washed by the PBS. Cells in each well were Digested by trypsin. Centrifuge and discard the supernatant, then wash the cells by DPBS (Ca^2+, Mg^2+ free) for twice. 10 fold dilute the antibody (PE-conjugated mouse anti-human CD274) by DPBS, then adding the staining solution to compounds treated samples and vehicle control sample. The low control only add DPBS without antibody. Incubate the plates at room temperature for 20 minutes and protect from light. After 20 minutes, wash the samples by DPBS for twice. […]

On to `O=C(O)[C@H](CO)NCCCN1C(=O)COc2cc(-c3cccc(-c4cccc(-c5ccc6c(c5)OCC(=O)N6CCCN[C@@H](CO)C(=O)O)c4Cl)c3Cl)ccc21`, for which the pEC50 – broadly, −log10 of the EC50, conventionally taken in molar units – in assay [1] was 6.92. Besides, the pIC50 (commonly −log10 of the IC50, conventionally taken in molar units) at PD-1/PD-L1 is 8.19. The Internalization at PD-L1/CHO-K1 cells is 2.90%.

As to `O=C(O)[C@@H]1C[C@@H](O)CN1CCCN1C(=O)COc2cc(-c3cccc(-c4cccc(-c5ccc6c(c5)OCC(=O)N6CCCN5C[C@H](O)C[C@H]5C(=O)O)c4Cl)c3Cl)ccc21`, the pIC50 on PD-1/PD-L1 is 7.99.

As to `O=C1CC[C@@H](CN2C(=O)C(F)(F)Oc3cc(-c4cccc(-c5cccc(-c6cnc7c(c6)OC(F)(F)C(=O)N7C[C@@H]6CCC(=O)N6)c5Cl)c4Cl)cnc32)N1`, the pIC50 at PD-1/PD-L1 is 6.84.

Consider `O=C1CC[C@@H](CN2c3ccc(-c4cccc(-c5cccc(-c6ccc7c(c6)OCS(=O)(=O)N7C[C@@H]6CCC(=O)N6)c5Cl)c4Cl)cc3OCS2(=O)=O)N1`, for which, on PD-1/PD-L1, the pIC50 is 6.72.

For `O=C1CC[C@@H](CN2C(=O)CCNc3cc(-c4cccc(-c5cccc(-c6ccc7c(c6)NCCC(=O)N7C[C@@H]6CCC(=O)N6)c5Cl)c4Cl)ccc32)N1`, the pIC50 at PD-1/PD-L1 is 6.13.

In the case of `O=C(O)CN1C(=O)COc2cc(-c3cccc(-c4cccc(-c5ccc6c(c5)OCC(=O)N6CC(=O)O)c4Cl)c3Cl)ccc21`, on PD-1/PD-L1 (tested form: Na salt), the pIC50 is 5.52.
